Results published in article PMC8399901, “Effects of a Peripherally Restricted Hybrid Inhibitor of CB1 Receptors and iNOS on Alcohol Drinking Behavior and Alcohol-Induced Endotoxemia” (Molecules, 2021).

By UniProt entry, the sequences of proteins in these tests, tags left out.
UniProt P47746, whole entry: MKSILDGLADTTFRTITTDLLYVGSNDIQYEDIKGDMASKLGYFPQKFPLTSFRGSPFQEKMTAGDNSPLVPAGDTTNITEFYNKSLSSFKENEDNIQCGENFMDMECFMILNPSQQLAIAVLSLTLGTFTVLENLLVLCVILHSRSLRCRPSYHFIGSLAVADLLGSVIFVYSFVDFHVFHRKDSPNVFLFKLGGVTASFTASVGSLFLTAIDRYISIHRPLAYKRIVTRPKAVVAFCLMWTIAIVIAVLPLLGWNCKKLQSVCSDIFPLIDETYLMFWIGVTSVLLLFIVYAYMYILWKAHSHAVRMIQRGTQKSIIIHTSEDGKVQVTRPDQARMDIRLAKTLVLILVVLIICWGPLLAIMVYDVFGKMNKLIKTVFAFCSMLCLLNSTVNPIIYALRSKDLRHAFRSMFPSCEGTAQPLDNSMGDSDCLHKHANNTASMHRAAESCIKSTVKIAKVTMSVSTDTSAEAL

Key:
Assay type in all cases: in vivo
CB1R [1] = biological target: T1, CB1R (Mus musculus, UniProt P47746); test: CP 55,940-induced hypothermia in mice
T1 construct: from tissue; host or cells: living C57BL/6J mice (whole animal; brain and peripheral tissues)
Method: (§1) Drugs were applied in a volume of 1 μL over the course of 2 min via 33 g internal injector (P1 Technologies, Roanoke, VA, USA) connected with the 2 µL precision glass Hamilton syringe (USA) by a PE-20 tubing (Fisher Scientific, Hampton, NH, USA). The infusion rate and volume were controlled through the use of the syringe pump (model PHD 22/2000, Harvard Apparatus, Cambridge, MA, USA). Following 2 min infusion, injectors were left in place for additional 3 min to allow a passive diffusion of drugs into the tissue.
(§2) Catalepsy was assessed using the bar test described with modifications. Mice were removed from home cages and their forepaws were placed on a horizontal stainless-steel rod, 0.5 cm in diameter, positioned 3.5 cm above the bench surface. […] The arbitrary cutoff time for cataleptic mice was 60 s. Hypothermia was then evaluated by measuring core body temperature with a rectal probe (Ellab Inc., Denver, CO, USA).
(§3) To determine a working range of CP 55,940 doses that induce catalepsy and hypothermia through CB1R, a dose–response curve for CP 55,940 was constructed first. Pharmacologically naïve Cnr1^−/− and wild-type littermates were injected with increasing doses of CP 55,940 (0.1, 0.3, 1, and 3 mg/kg; i.p.) at 30 min intervals. Hypothermia and catalepsy tests were performed every 30 min before ordering the next dose of CP 55,940.

CB1R [2] = biological target: T1, CB1R; test: CP 55,940-induced catalepsy (bar test) in mice
Method: as §1, §2, §3

CB1R [3] = biological target: T1, CB1R; test: Drinking-in-the-dark voluntary ethanol intake (20% ethanol, 4 h)
Method: as §1
The procedure was performed as described, with modifications. Mice were individually housed and acclimated to the room for 5–7 days before testing and randomly assigned to treatment groups. Starting 3 h into the dark cycle, water bottles were replaced with 20% ethanol in 25 × 100 mm glass tubes fitted with metal sippers, Access to the ethanol solution was limited to 4 h every day. […] Immediately after the drinking session, mice were deeply anesthetized with isoflurane. Blood was collected by traumatic avulsion of the orbital globe and kept for 10 min at room temperature in Eppendorf tubes followed by centrifugation at 3000× g for 10 min at 4 °C. Serum was collected and kept frozen in sealed vials at −80 °C until analysis.

[4] = C57BL/6J mice, 2 µg i.c.v. 30 min before CP 55,940 0.1 or 0.3 mg/kg i.p., read 30 min later

SMILES: Cc1c(C(=O)NN2CCCCC2)nn(-c2ccc(Cl)cc2Cl)c1-c1ccc(Cl)cc1 [rimonabant]
- blockade of hypothermic effect of CP55,940 (CB1R [1]; [4]): effectively blocked
- baseline body temperature before CP 55,940 injection (CB1R [1]; rimonabant 2 µg i.c.v.-infused group, n = 10, mean ± s.e.m.): 37.5 ± 0.1 °C
- blockade of cataleptic effect of CP55,940 (CB1R [2]; [4]): effectively blocked
- time mice held the bar before CP 55,940 injection (CB1R [2]; rimonabant 2 µg i.c.v.-infused group, mean ± s.e.m.): 0.1 ± 0.1 s
- reduction of alcohol drinking after oral gavage in CB1R KO mice (CB1R [3]; CB1R KO (Cnr−/−) mice, rimonabant 10 mg/kg oral gavage): did not occur in CB1R KO mice
- alcohol drinking after i.c.v. infusion (CB1R [3]; i.c.v. on day 4, one hour before dark period (rimonabant 2 µg; JD5037 1 µg)): did not alter alcohol drinking
- alcohol drinking after oral gavage (CB1R [3]; wild-type/C57BL/6J mice, oral gavage day 4 (rimonabant 10 mg/kg; JD5037 3 mg/kg; S-MRI-1867 3, 10 mg/kg; R-MRI-1867 10 mg/kg)): markedly reduced
